# Tested on: synthetic MCA-based peptide substrate (Biovision ACE2 Activity Assay Kit, Cat. No. K897-100)
substance,measurement,value
"ACE2 recombinant control (Sigma, Cat. No. SAE0064)",ACE2 enzymatic activity,"1,860 pmol/min/µg"

# Source: patent publication US20230181700A1 (priority 2021, published 2023)
